# Reference: US20040265931
# B1: recombinant Flag-HAUSP-cs (protein)
# chain: MNHQQQQQQQKAGEQQLSEPEDMEMEAGDTDDPPRITQNPVINGNVALSDGHNTAEEDMEDDTSWRSEATFQFTVERFSRLSESVLSPPCFVRNLPWKIMVMPRFYPDRPHQKSVGFFLQCNAESDSTSWSCHAQAVLKIINYRDDEKSFSRRISHLFFHKENDWGFSNFMAWSEVTDPEKGFIDDDKVTFEVFVQADAPHGVAWDSKKHTGYVGLKNQGATSYMNSLLQTLFFTNQLRKAVYMMPTEGDDSSKSVPLALQRVFYELQHSDKPVGTKKLTKSFGWETLDSFMQHDVQELCRVLLDNVENKMKGTCVEGTIPKLFRGKMVSYIQCKEVDYRSDRREDYYDIQLSIKGKKNIFESFVDYVAVEQLDGDNKYDAGEHGLQEAEKGVKFLTLPPVLHLQLMRFMYDPQTDQNIKINDRFEFPEQLPLDEFLQKTDPKDPANYILHAVLVHSGDNHGGHYVVYLNPKGDGKWCKFDDDVVSRCTKEEAIEHNYGGHDDDLSVRHCTNAYMLVYIRESKLSEVLQAVTDHDIPQQLVERLQEEKRIEAQKRKERQEAHLYMQVQIVAEDQFCGHQGNDMYDEEKVKYTVFKVLKNSSLAEFVQSLSQTMGFPQDQIRLWPMQARSNGTKRPAMLDNEADGNKTMIELSDNENPWTIFLETVDPELAASGATLPKFDKDHDVMLFLKMYDPKTRSLNYCGHIYTPISCKIRDLLPVMCDRAGFIQDTSLILYEEVKPNLTERIQDYDVSLDKALDELMDGDIIVFQKDDPENDNSELPTAKEYFRDLYHRVDVIFCDKTIPNDPGFVVTLSNRMNYFQVAKTVAQRLNTDPMLLQFFKSQGYRDGPGNPLRHNYEGTLRDLLQFFKPRQPKKLYYQQLKMKITDFENRRSFKCIWLNSQFREEEITLYPDKHGCVRDLLEECKKAVELGEKASGKLRLLEIVSYKIIGVHQEDELLECLSPATSRTFRIEEIPLDQVDIDKENEMLVTVAHFHKEVFGTFGIPFLLRIHQGEHFREVMKRIQSLLDIQEKEFEKFKFAIVMTGRHQYINEDEYEVNLKDFEPQPGNMSHPRPWLGLDHFNKAPKRSRYTYLEKAIKIHN
# Biological target: ubiquitinated Flag-p53
protein,measurement,value
B1,in vitro deubiquitination of purified ubiquitinated p53,the mutant was functionally defective in deubiquitinating p53 in vitro
